The text below walks through data of patent US11104700B2, “Oligonucleotides” (OXFORD UNIVERSITY INNOVATION LIMITED, priority 2017, dated 2021).

The subject of the series is Phosphodiesterase 1 from Crotalus adamanteus venom.

For the substance 5′-dCGACG^MeC^LtT^LTGCAGC [ON6], the “time to full digestion by 3′-exonuclease (gel)” value is recorded as over 30 min.
For CGACG^MeCT^LTGCAGC [ON4] the value was at most 5 min.
